Data published in PubChem BioAssay (NCI).
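These data come from cells grown in 96-well plates and exposed to compound for 48 hours at five concentrations. The concentration for 50% growth inhibition is given as GI50.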

Key:
Assay in all cases: NCI-60 cell line screen, 48 h; in the data active = GI50 below about 0.43 µM; inactive = the rest
[1] = tested on: MOLT-4 leukemia
[2] = tested on: OVCAR-8 ovarian
[3] = tested on: RXF 393 renal
[4] = tested on: NCI-H522 lung
[5] = tested on: NCI-H226 lung
[6] = tested on: CAKI-1 renal
[7] = tested on: NCI-H23 lung
[8] = tested on: HOP-92 NSCLC
[9] = tested on: SW-620 colon
[10] = tested on: NCI/ADR-RES ovarian
[11] = tested on: SK-MEL-5 melanoma
[12] = tested on: OVCAR-4 ovarian
[13] = tested on: NCI-H322M lung
[14] = tested on: MCF7 breast
[15] = tested on: UACC-257 melanoma
[16] = tested on: MDA-MB-231 breast
[17] = tested on: HS 578T breast
[18] = tested on: NCI-H460 lung
[19] = tested on: OVCAR-3 ovarian
[20] = tested on: BT-549 breast
[21] = tested on: SN12C renal
[22] = tested on: M14 melanoma
[23] = tested on: SF-539 CNS
[24] = tested on: EKVX NSCLC
[25] = tested on: IGROV1 ovarian
[26] = tested on: HCT-15 colon
[27] = tested on: UACC-62 melanoma
[28] = tested on: CCRF-CEM leukemia
[29] = tested on: SK-MEL-28 melanoma
[30] = tested on: ACHN renal
[31] = tested on: LOX IMVI melanoma
[32] = tested on: SK-MEL-2 melanoma
[33] = tested on: K-562 leukemia
[34] = tested on: SNB-75 CNS
[35] = tested on: KM12 colon
[36] = tested on: HT29 colon
[37] = tested on: MDA-MB-435
[38] = tested on: HCC-2998 colon
[39] = tested on: HOP-62 NSCLC
[40] = tested on: SNB-19 CNS
[41] = tested on: TK-10 renal
[42] = tested on: A498 renal
[43] = tested on: U251 CNS
[44] = tested on: MALME-3M melanoma
[45] = tested on: SK-OV-3 ovarian
[46] = tested on: DU-145 prostate
[47] = tested on: SR leukemia
[48] = tested on: 786-0 renal
[49] = tested on: RPMI-8226 leukemia
[50] = tested on: HL-60(TB) leukemia
[51] = tested on: COLO 205 colon
[52] = tested on: A549 NSCLC
[53] = tested on: UO-31 renal
[54] = tested on: OVCAR-5 ovarian
[55] = tested on: MDA-N
[56] = tested on: HCT-116 colon
[57] = tested on: PC-3 prostate
[58] = tested on: SF-268 CNS
[59] = tested on: T-47D breast
[60] = tested on: SF-295 CNS

Measured: GI50

Cc1cc(N(CCCl)CCCl)ccc1C=O
inactive: [1] 2.39 µM | [2] 34.2 µM | [3] 13.9 µM | [4] 21 µM | [5] 1.31 µM | [6] 1.14 µM | [7] 16.8 µM | [8] 7.8 µM | [9] 68.5 µM | [10] 32.2 µM | [11] 21.8 µM | [12] 36.5 µM | [13] 69.4 µM | [14] 14.4 µM | [15] 4.82 µM | [16] 80.4 µM | [17] 39.7 µM | [18] 0.741 µM | [19] 33.4 µM | [20] 13.6 µM | [21] 10 µM | [22] 32.1 µM | [23] 26 µM | [24] 39 µM | [25] 97.1 µM | [26] 35.3 µM | [27] 1.67 µM | [28] 5.75 µM | [29] 56.1 µM | [30] 4.38 µM | [31] 22.2 µM | [32] 32.2 µM | [33] 54.2 µM | [34] 20.5 µM | [35] 63.5 µM | [36] 42.5 µM | [37] 54.5 µM | [38] 33.7 µM | [39] 43.3 µM | [40] 51.1 µM | [41] 4.7 µM | [42] 1.01 µM | [43] 26.4 µM | [44] 14.3 µM | [45] 69.3 µM | [46] 23.6 µM | [47] 2.18 µM | [48] 24.1 µM | [49] > 100 µM | [50] 1.64 µM | [51] 21.5 µM | [52] 12.6 µM | [53] 13 µM | [54] 7.92 µM | [55] 46.8 µM | [56] 25.2 µM | [57] 32.2 µM | [58] 18.9 µM | [59] 37.3 µM | [60] 27.8 µM
